## Yeast mating assay 2: variants of the scFv Ab-91

Data: MIT Lincoln Laboratory AlphaSeq set, Engelhart et al. 2022, doi:10.1038/s41597-022-01779-4, as distributed in FLAb.

Target: peptide PDVDLGDISGINAS, taken from heptad repeat 2 (HR2) of SARS-CoV-2 spike.

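Phage display of a naive human antibody library on the peptide gave the parent. Library AAYL51 holds single substitutions and randomly drawn double and triple substitutions in the CDRs. AlphaSeq pools MATa yeast showing the antibodies with MATalpha yeast showing the peptide. The frequency of each diploid, read from paired DNA barcodes, reflects how well the two displayed proteins bind. Scores were corrected for input abundance and mapped to Kd with protein pairs of known affinity run in the same pool. Mating was done three times.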

Each scFv is VL, a 15-residue (Gly4Ser)3 linker, VH, as in the parent Ab-91, and differs from it in the CDRs of the heavy chain only.
VL: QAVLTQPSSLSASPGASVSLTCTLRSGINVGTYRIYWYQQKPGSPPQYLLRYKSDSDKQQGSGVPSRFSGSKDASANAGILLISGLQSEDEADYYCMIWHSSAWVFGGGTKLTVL
VH: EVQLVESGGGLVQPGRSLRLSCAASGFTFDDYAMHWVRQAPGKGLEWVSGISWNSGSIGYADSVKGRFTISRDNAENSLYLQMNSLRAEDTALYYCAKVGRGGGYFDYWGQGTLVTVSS

Variants are written as CDR1, CDR2 and CDR3 of the heavy chain (limits as in the source). Parent: GFTFDDYAMH, GISWNSGSIGYADSVK, VGRGGGYFDY.
All variants listed here change M34 of the VH, counted from its first residue.
Affinities are written as log10 Kd with Kd in nM; a lower number is a better binder.
"nd" means that the variant was in the library but no mating with the target was seen in that replicate; the authors take this as a sign of poor binding, and no number exists.

Variant GFTFDDYAEH | GISWNSGSIGYADPVY | VGRGGGYFDY gave nd, nd, nd (controls 0 of 9).
Variant GFTFDDYANH | GISWNSGSIGYADSVK | VGRGGWYVDY gave nd, nd, nd (controls 0 of 9).
Variant GFTFDDYAWH | GISWNRGSGGYADSVK | VGRGGGYFDY gave nd, nd, nd (controls 0 of 9).
Variant GFTFDDYANH | GISWTSGSIGYADSPK | VGRGGGYFDY gave 5.26, nd, nd (controls 5 of 9).
Variant GFTFDDYATH | GISWNSGSIVYADSVK | VGRGGGWFDY gave nd, nd, nd (controls 0 of 9).
Variant PFTFDDYADH | GISWNSGSIGYADDVK | VGRGGGYFDY gave 5.05, nd, nd (controls 4 of 9).
Variant GFTFDDYAFH | GISWNSGSHGYADSVK | VGRGGGYYDY gave 3.13, nd, nd (controls 0 of 9).
Variant GGTFDDYAGH | GISWNSGSEGYADSVK | VGRGGGYFDY gave nd, nd, 4.46 (controls 0 of 9).
Variant GFTFDDYADH | GISWNSGSIVYADSVK | VHRGGGYFDY gave nd, nd, nd (controls 1 of 9).
Variant GFTFDDYAYH | GISWNSGIIGYADSVK | GGRGGGYFDY gave nd, nd, nd (controls 1 of 9).
Variant GFTFDDYAKH | GISWNSGSIGYCDSVE | VGRGGGYFDY gave nd, nd, nd (controls 0 of 9).
Variant GFTEDDYAWH | GISWQSGSIGYADSVK | VGRGGGYFDY gave nd, 4.84, 4.90 (controls 2 of 9).
Variant GFNFDDLANH | GISWNSGSIGYADSVK | VGRGGGYFDY gave nd, nd, nd (controls 1 of 9).
Variant GFTFDDYASH | GISWNSGIIGIADSVK | VGRGGGYFDY gave nd, nd, nd (controls 1 of 9).
Variant GFTFDDYMDH | GISWNSGSIGYADSVK | VGRGKGYFDY gave nd, nd, nd (controls 0 of 9).
Variant GFTFDPYADH | GISWNSGSIGYADSVK | VGRGGGYFCY gave 4.62, 4.52, nd (controls 6 of 9).
Variant GFTFDDAALH | GGSWNSGSIGYADSVK | VGRGGGYFDY gave nd, nd, nd (controls 0 of 9).
Variant GFTFDDYAIH | GISWNSGSIGYCDSVK | VGRGGGYFGY gave 3.88, nd, nd (controls 0 of 9).
Variant GFTFDDLASH | GISQNSGSIGYADSVK | VGRGGGYFDY gave 4.78, nd, 5.57 (controls 3 of 9).
Variant GFTMDDYAKH | GISWNSNSIGYADSVK | VGRGGGYFDY gave 4.55, nd, nd (controls 1 of 9).
Variant GNTFDDYAYH | GISWYSGSIGYADSVK | VGRGGGYFDY gave 4.57, 6.80, nd (controls 3 of 9).
Variant KFTFDDYACH | GILWNSGSIGYADSVK | VGRGGGYFDY gave 6.46, nd, 5.54 (controls 4 of 9).
Variant GFTMDDYASH | GISWNSGSIGYADSVK | VGRGGGYFDY gave 5.27, nd, nd (controls 2 of 9).
Variant GFTFDDYAVH | GISWNSGSIGYADSVK | VGTGGGSFDY gave 4.35, 4.50, nd (controls 8 of 9).
Variant GFTFDDYADH | DISWNSGSIGYADSVK | VGRGGGYGDY gave nd, nd, nd (controls 1 of 9).
Variant GFTFDDYQVH | GISWNSGSIGYANSVK | VGRGGGYFDY gave nd, 4.08, nd (controls 2 of 9).
Variant GFTFDDYAKH | GISWNSGSIGYADWVK | VGRGGGYFDY gave nd, 2.99, nd (controls 1 of 9).
Variant GFTFDDYASH | GISWNSGSIGYADSQE | VGRGGGYFDY gave 5.78, nd, 4.69 (controls 1 of 9).
Variant GFFFDDYVLH | GISWNSGSIGYADSVK | VGRGGGYFDY gave nd, nd, nd (controls 3 of 9).
Variant GFTFDDYALH | GISWNSGSIGYADCVK | VSRGGGYFDY gave nd, nd, 3.79 (controls 1 of 9).
Variant GFTFDDYALH | GISWNSGSRGYADSVK | VGRGGGYFYY gave nd, nd, nd (controls 0 of 9).
Variant GFTFPDYAPH | GISWNSGSIGYADSVK | VGRGGGSFDY gave nd, nd, nd (controls 0 of 9).
Variant GFTFDDYARH | GRSWNSASIGYADSVK | VGRGGGYFDY gave nd, nd, nd (controls 0 of 9).
Variant GFTFDDYASH | GISWNSGSIGYADSVK | VGRGGGYFVA gave 4.23, nd, 4.40 (controls 1 of 9).
Variant GFTFDDYATH | GISWWSGSIQYADSVK | VGRGGGYFDY gave nd, nd, nd (controls 0 of 9).
Variant GFTFDDYAKH | GWSWNSGSIMYADSVK | VGRGGGYFDY gave nd, nd, nd (controls 0 of 9).
Variant GFTFDDYAGH | GISWNSGSIGYAISVK | VGRGGGYFDY gave nd, nd, nd (controls 0 of 9).
Variant GFTFDDYARH | GIMWNSGSIGYADSVK | VGRGGGYSDY gave nd, nd, nd (controls 1 of 9).
Variant GETFDDYAAH | GISWNSGSIGYADSVK | QGRGGGYFDY gave 4.90, 5.55, 5.31 (controls 6 of 9).
Variant GFTFDDYALH | GISWNSGSIGYADSVK | VGRGGGYFDM gave nd, nd, nd (controls 0 of 9).

The opening 7 entries, copied out:

CDR-H1,CDR-H2,CDR-H3,"replicates, log10 nM",control signals
GFTFDDYAEH,GISWNSGSIGYADPVY,VGRGGGYFDY,"nd, nd, nd",0/9
GFTFDDYANH,GISWNSGSIGYADSVK,VGRGGWYVDY,"nd, nd, nd",0/9
GFTFDDYAWH,GISWNRGSGGYADSVK,VGRGGGYFDY,"nd, nd, nd",0/9
GFTFDDYANH,GISWTSGSIGYADSPK,VGRGGGYFDY,"5.26, nd, nd",5/9
GFTFDDYATH,GISWNSGSIVYADSVK,VGRGGGWFDY,"nd, nd, nd",0/9
PFTFDDYADH,GISWNSGSIGYADDVK,VGRGGGYFDY,"5.05, nd, nd",4/9
GFTFDDYAFH,GISWNSGSHGYADSVK,VGRGGGYYDY,"3.13, nd, nd",0/9

Empty control strains, which show no peptide, gave a signal in 21% of pairings with library AAYL51; the median was 4.54 and 95% of these signals were weaker than 3.26. No background was subtracted. The control count says in how many pairings with the empty strains this scFv gave a signal.
In this assay the parent's reference entry averaged 1.86; its copy inside this library read 0.88.